Patent US9199944B2 (priority 2012, dated 2015)

Chains of the proteins cited; added tags and fusions are not shown.
UniProt Q07912, whole entry, species assumed: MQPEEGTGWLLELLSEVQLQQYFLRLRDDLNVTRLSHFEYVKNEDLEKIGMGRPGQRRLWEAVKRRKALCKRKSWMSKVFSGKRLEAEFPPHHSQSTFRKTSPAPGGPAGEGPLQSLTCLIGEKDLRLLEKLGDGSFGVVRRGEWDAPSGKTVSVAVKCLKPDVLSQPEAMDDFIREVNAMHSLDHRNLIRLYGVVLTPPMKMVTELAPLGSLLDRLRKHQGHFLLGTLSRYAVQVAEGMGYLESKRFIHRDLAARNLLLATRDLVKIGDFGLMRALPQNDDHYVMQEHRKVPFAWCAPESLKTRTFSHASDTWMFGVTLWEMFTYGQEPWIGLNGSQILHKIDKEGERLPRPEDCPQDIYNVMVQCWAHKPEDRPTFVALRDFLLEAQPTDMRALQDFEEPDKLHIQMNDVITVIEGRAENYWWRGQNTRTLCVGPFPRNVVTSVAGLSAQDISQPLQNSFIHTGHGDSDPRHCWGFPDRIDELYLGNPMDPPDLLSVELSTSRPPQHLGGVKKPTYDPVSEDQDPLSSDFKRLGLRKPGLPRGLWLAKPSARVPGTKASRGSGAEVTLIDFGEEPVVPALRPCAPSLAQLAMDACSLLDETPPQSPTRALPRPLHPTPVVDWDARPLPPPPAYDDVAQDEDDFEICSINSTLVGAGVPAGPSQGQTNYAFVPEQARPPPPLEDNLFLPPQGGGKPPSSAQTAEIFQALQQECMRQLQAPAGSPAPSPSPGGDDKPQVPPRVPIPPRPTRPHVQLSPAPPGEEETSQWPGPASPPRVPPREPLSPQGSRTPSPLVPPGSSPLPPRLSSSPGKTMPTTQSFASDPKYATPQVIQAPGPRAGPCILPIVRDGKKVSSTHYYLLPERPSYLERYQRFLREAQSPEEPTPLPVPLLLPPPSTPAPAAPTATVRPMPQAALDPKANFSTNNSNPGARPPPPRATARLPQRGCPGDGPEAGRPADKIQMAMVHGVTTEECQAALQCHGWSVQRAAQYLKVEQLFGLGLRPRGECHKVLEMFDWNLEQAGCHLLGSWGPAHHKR

Key:
[1] = tested on: H3122 NSCLC lung cancer cell line xenograft; conditions: mouse, in vivo
[2] = molecular target: T1, ACK1 (Homo sapiens (Human), UniProt Q07912)
[3] = molecular target: T1, ACK1; assay: biochemical; conditions: 40 min; for remaining activity at 0.1 µM: read-out: Ack1 activation rate % (0.1 μM); for remaining activity at 1 µM: read-out: Ack1 activation rate % (1 μM)

Row | Compound | increase of tumor volume compared to that of the first day [1] | phosphorylation rate of ACK1 (inhibition of ACK1) [2] | remaining activity at 0.1 µM [3] | remaining activity at 1 µM [3]
1 | C[C@@H](Oc1cc(-c2cnn(C3CCNCC3)c2)cnc1N)c1c(Cl)ccc(F)c1Cl [Crizotinib, reference compound] | about 2.3 fold |  |  | 
2 | Cc1nc(Nc2ncc(C(=O)Nc3c(C)cccc3Cl)s2)cc(N2CCN(CCO)CC2)n1 [Dasatinib, reference compound] |  | significantly lower |  | 
3 | CCOc1cc(N2CCN(C(C)=O)CC2)ccc1Nc1nc(Nc2ccc(N3CCN(C(C)=O)CC3)cc2OC)ncc1Cl [Example 1, 1-(4-(4-(4-(4-(4-acetylpiperazin-1-yl)-2-ethoxyphenylamino)-5-chloropyrimidin-2-ylamino)-3-methoxyphenyl)piperazin-1-yl)ethanone] |  | significantly lowering the concentration of ACK1 | 4% | 1%
4 | COc1cc(N2CCN(C(C)=O)CC2)ccc1Nc1ncc(C(F)(F)F)c(Nc2ccc(N3CCN(C)CC3)cc2OC)n1 [Example 59] |  |  | 2% | 0%
5 | COc1cc(N2CCN(C(C)=O)CC2)ccc1Nc1ncc(C(F)(F)F)c(Nc2ccc(N3CCN(CCO)CC3)cc2OC)n1 [Example 61, 1-(4-(4-((4-((4-(4-(2-hydroxyethyl)piperazin-1-yl)-2-methoxyphenyl)amino)-5-(trifluoromethyl)pyrimidin-2-yl)amino)-3-methoxyphenyl)piperazin-1-yl)ethanone] |  |  | 2% | 0%
6 | COc1cc(N2CCN(C(=O)OC(C)(C)C)CC2)ccc1Nc1ncc(C(F)(F)F)c(Nc2ccc(N3CCN(C(C)=O)CC3)cc2OC)n1 [Example 62, tert-butyl-4-(4-((4-((4-(4-acetylpiperazin-1-yl)-2-methoxyphenyl)amino)-5-(trifluoromethyl)pyrimidin-2-yl)amino)-3-methoxyphenyl)piperazin-1-carboxylate] |  |  | ≤ 10% | 
7 | COc1cc(N2CCNCC2)ccc1Nc1ncc(C(F)(F)F)c(Nc2ccc(N3CCN(C(C)=O)CC3)cc2OC)n1 [Example 63, 1-(4-(3-methoxy-4-((2-((2-methoxy-4-(piperazin-1-yl)phenyl)amino)-5-(trifluoromethyl)pyrimidin-4-yl)amino)phenyl)piperazin-1-yl)ethanone] |  |  | 2% | 0%
8 | COc1cc(N2CCN(S(C)(=O)=O)CC2)ccc1Nc1ncc(C(F)(F)F)c(Nc2ccc(N3CCN(C(C)=O)CC3)cc2OC)n1 [Example 67, 1-(4-(3-methoxy-4-((2-((2-methoxy-4-(4-(methylsulfonyl)piperazin-1-yl)phenyl)amino)-5-(trifluoromethyl)pyrimidin-4-yl)amino)phenyl)piperazin-1-yl)ethanone] |  |  | 2% | 0%
9 | COc1cc(N2CCN(CCO)CC2)ccc1Nc1ncc(C(F)(F)F)c(Nc2ccc(N3CCN(C(C)=O)CC3)cc2OC)n1 [Example 68, 1-(4-(4-((2-((4-(4-(2-hydroxyethyl)piperazin-1-yl)-2-methoxyphenyl)amino)-5-(trifluoromethyl)pyrimidin-4-yl)amino)-3-methoxyphenyl)piperazin-1-yl)ethanone] |  |  | 1% | 0%
10 | COc1cc(N2CCN(C(=O)CO)CC2)ccc1Nc1ncc(C(F)(F)F)c(Nc2ccc(N3CCN(C(=O)CO)CC3)cc2OC)n1 [Example 72, 1,1′-(4,4′-(((5-(trifluoromethyl)pyrimidin-2,4-diyl)bis(azanediyl))bis(3-methoxy-4,1-phenylene))bis(piperazin-4,1))bis(2-hydroxyethanone)] |  |  | 1% | 0%
11 | CC(=O)N1CCN(c2ccc(Nc3ncc(C(F)(F)F)c(Nc4ccc(N5CCN(C(C)=O)CC5)cc4OC(F)F)n3)c(OC(F)F)c2)CC1 [Example 73] |  |  | 1% | 0%
12 | COc1cc(N2CCN(C(C)=O)CC2)ccc1Nc1ncc(Cl)c(Nc2ccc(N3CCNCC3)cc2F)n1 [Example 81, 1-(4-(4-((5-chloro-4-((2-fluoro-4-(piperazin-1-yl)phenyl)amino)pyrimidin-2-yl)amino)-3-methoxyphenyl)piperazin-1-yl)ethanone] |  |  | 3% | 1%
13 | COc1cc(N2CCN(C(=O)CO)CC2)ccc1Nc1ncc(Cl)c(Nc2ccc(N3CCN(C(C)=O)CC3)cc2OC)n1 [Example 83, 1-(4-(4-((4-((4-(4-acetylpiperazin-1-yl)-2-methoxyphenyl)amino)-5-chloropyrimidin-2-yl)amino)-3-methoxyphenyl)piperazin-1-yl)-2-hydroxyethanone] |  |  | 0% | 0%
14 | COc1cc(N2CCN(CCO)CC2)ccc1Nc1ncc(Cl)c(Nc2ccc(N3CCN(C(C)=O)CC3)cc2OC)n1 [Example 85, 1-(4-(4-((5-chloro-2-((4-(4-(2-hydroxyethyl)piperazin-1-yl)-2-methoxyphenyl)amino)pyrimidin-4-yl)amino)-3-methoxyphenyl)piperazin-1-yl)ethanone] |  |  | 0% | 0%
15 | COc1cc(N2CCN(C(C)=O)CC2)ccc1Nc1ncc(Cl)c(Nc2ccc(N3CCN(C(=O)CO)CC3)cc2OC(F)F)n1 [Example 88, 1-(4-(4-((2-((4-(4-acetylpiperazin-1-yl)-2-methoxyphenyl)amino)-5-chloropyrimidin-4-yl)amino)-3-(difluoromethoxy)phenyl)piperazin-1-yl)-2-hydroxyethanone] |  |  | 0% | 0%
